Experimental data as given in patent US9766250B2, “Method for detecting protein-protein interaction” (MEDICAL & BIOLOGICAL LABORATORIES CO., LTD., priority 2011, dated 2017).

The chains behind the UniProt entries cited, without tags or fusion partners. Residues count along the entry.
UniProt Q00987, 1-119: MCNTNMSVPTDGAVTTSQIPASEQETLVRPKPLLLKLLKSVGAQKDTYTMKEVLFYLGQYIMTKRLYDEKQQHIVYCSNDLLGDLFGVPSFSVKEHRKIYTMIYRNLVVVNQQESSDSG

How the values were obtained:
[1] = target: T1, interaction between a p53 protein and an MDM2 protein (Homo sapiens, UniProt Q00987); test: Nutlin-3 stepwise addition, live imaging of fluorescent foci in HeLaS3 cells (Example 12); assay type: cell-based; conditions: HeLaS3 cells expressing p62(PB1)-p53 and AG-MDM2; 0.19, 0.77, 4.8, 12 μM; 15 minutes each
T1 construct: region having the 7th to 125th amino acids of the MDM2 protein; expressed in transfected cells; host or cells: HeLaS3, transient

[2] = target: T2, p53 and MDM2 interaction (p62(PB1)-p53 and AG-MDM2) (Homo sapiens, UniProt Q00987); test: Time course of fluorescent foci after Nutlin-3 addition, stable CHO-K1 cells (Example 25); assay type: cell-based; conditions: 10 μM, decrease of assemblies
T2 construct: region having the 7th to 125th amino acids of the MDM2 protein; expressed in transfected cells

With `COc1ccc(C2=N[C@@H](c3ccc(Cl)cc3)[C@@H](c3ccc(Cl)cc3)N2C(=O)N2CCNC(=O)C2)c(OC(C)C)c1` [Nutlin-3] the “fluorescence luminance of fluorescent foci in the field of view vs inhibitor concentration” value [1] was “decreased in a manner dependent on the inhibitor concentration” and the “time when the half value of total fluorescence luminance of assemblies was reached” value [2] was “approximately 3 minutes”.
